The results in this text go back to ChEMBL document CHEMBL5357018, “Discovery of Malarial Threonyl tRNA Synthetase Inhibitors by Screening of a Focused Fragment Library” (ACS Med Chem Lett, 2024).

Structures are written as SMILES.

The inhibition is the percentage by which the read-out fell short of the control. A lower inhibition goes with a response near the control.

In this test the target is T1, threonine--tRNA ligase (Plasmodium falciparum) (UniProt Q8IIA4).
T1 sequence (whole entry): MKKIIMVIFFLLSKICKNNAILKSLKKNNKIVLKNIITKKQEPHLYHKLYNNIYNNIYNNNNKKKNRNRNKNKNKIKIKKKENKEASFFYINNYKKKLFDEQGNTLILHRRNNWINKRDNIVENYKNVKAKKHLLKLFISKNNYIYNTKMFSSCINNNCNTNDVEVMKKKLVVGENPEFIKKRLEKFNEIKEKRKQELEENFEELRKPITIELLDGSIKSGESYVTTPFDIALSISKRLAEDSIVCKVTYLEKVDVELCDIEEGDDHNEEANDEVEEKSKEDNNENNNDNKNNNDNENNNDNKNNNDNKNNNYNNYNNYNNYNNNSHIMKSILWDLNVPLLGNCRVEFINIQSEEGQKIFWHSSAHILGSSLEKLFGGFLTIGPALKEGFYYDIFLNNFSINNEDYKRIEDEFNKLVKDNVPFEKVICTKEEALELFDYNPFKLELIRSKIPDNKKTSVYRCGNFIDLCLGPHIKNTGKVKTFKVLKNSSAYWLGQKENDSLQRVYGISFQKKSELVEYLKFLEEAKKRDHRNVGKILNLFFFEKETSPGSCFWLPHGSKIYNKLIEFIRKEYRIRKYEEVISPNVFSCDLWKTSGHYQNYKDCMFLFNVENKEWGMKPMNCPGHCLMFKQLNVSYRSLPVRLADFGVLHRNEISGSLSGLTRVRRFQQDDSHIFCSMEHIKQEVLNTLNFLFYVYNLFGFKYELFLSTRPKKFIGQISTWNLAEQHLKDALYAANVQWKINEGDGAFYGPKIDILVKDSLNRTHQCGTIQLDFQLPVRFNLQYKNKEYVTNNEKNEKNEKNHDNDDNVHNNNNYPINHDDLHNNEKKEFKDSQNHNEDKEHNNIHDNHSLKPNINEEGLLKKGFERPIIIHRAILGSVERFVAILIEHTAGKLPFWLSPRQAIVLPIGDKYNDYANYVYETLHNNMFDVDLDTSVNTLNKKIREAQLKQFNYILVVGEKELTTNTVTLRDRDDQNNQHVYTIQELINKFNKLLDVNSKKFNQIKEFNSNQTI
The note with it: dose 100.0 µM.
`C[C@@H](O)[C@H](N)C(=O)NS(=O)(=O)Oc1cccc2ncccc12` gave an inhibition of 24%.
Under `C[C@@H](O)[C@H](N)C(=O)NS(=O)(=O)Oc1cccc2nccnc12` stands 29%; under `C[C@@H](O)[C@H](N)C(=O)NS(=N)(=O)c1ccccc1` (mixture of isomers), 13%.
Under `C[C@@H](O)[C@H](N)C(=O)NS(=O)(=O)Nc1ccccc1` stands 9%; under `C[C@@H](O)[C@H](N)C(=O)NS(=O)(=O)Oc1cccc2cnccc12`, 33%; under `C[C@@H](O)[C@H](N)C(=O)NS(=O)(=O)c1ccccc1`, 26%.
On to `C[C@@H](O)[C@H](N)C(=O)NP(=O)(O)OCCc1ccccc1`, for which the inhibition turned out to be 30%.
To `C[C@@H](O)[C@H](N)C(=O)N[S+]([O-])c1ccccc1` (some centres undefined) belongs 33%.
To `C[C@@H](O)[C@H](N)C(=O)NP(=O)(O)Oc1ccccc1` belongs 0%.
